Reference: patent EP4843985A1, “TRIAZOLOPYRIMIDINE DERIVATIVE, PREPARATION METHOD THEREFOR AND USE THEREOF” (dated 2026)

The chains behind the UniProt entries cited, without tags or fusion partners. Residues count along the entry.
UniProt Q14191, 517-1238 limits assumed: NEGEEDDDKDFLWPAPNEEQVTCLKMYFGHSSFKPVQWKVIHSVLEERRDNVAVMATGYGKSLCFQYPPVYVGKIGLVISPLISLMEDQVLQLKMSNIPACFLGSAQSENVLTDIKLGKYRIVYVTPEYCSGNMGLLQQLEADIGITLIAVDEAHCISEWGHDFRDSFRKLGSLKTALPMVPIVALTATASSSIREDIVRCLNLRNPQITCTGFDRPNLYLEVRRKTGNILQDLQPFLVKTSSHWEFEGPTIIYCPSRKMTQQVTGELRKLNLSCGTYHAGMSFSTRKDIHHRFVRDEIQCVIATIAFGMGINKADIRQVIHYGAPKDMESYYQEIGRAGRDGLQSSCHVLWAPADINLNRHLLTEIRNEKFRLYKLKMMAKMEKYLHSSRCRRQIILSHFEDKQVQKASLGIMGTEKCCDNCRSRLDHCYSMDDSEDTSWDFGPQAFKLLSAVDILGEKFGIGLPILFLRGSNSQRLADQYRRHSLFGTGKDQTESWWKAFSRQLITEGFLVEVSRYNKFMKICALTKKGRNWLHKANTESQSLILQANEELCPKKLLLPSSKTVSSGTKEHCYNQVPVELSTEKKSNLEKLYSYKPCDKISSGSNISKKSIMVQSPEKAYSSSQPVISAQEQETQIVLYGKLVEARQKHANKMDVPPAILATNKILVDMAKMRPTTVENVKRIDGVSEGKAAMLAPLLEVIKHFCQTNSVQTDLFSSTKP

Tests used:
[1] = test system: SW48 (CRC, MSI); experiment: Cell proliferation inhibition assay (CellTiter-Glo), SW48; details: read-out: SW48 (CRC, MSI), 120 hours
[2] = target: WRN protein (AA N517-P1238) (Homo sapiens, UniProt Q14191); experiment: In vitro WRN enzymatic activity assay (ADP-Glo ATPase assay); details: read-out: ADP-Glo; 10 nM WRN enzyme, 3 hours pre-incubation at 25°C, ssDNA substrate
[3] = test system: SW620 (CRC, MSS); experiment: Cell proliferation inhibition assay (CellTiter-Glo), SW620; details: read-out: SW620 (CRC, MSS), 120 hours

| SMILES | IC50 [1] | IC50 [2] | IC50 [3] |
| --- | --- | --- | --- |
| CCc1c(N2CCN(C(=O)c3ncnc(C)c3O)CC2)c(=O)n2nc(C3=CCOCC3)nc2n1CC(=O)Nc1cc(C(F)(F)F)sc1Cl | 82.7 nM | 5.2 nM | > 10000 nM |
| CCc1c(N2CCN(C(=O)c3ncnc(C)c3S)CC2)c(=O)n2nc(C3=CCOCC3)nc2n1CC(=O)Nc1ccc(C(F)(F)F)cc1Cl | – | 9.46 nM | – |
| CCc1c(N2CCN(C(=O)c3ncnc(C)c3O)CC2)c(=O)n2nc(C3=CCOCC3)nc2n1CC(=O)Nc1ccc(C(F)(F)F)c2c1CCO2 | – | 5.1 nM | – |
| CCc1c(N2CCN(C(=O)c3ncnc(C)c3O)CC2)c(=O)n2nc(C#Cc3ccn(C)n3)nc2n1CC(=O)Nc1ccc(C(F)(F)F)cc1Cl | – | 31.2 nM | – |
| CCc1c(N2CCN(C(=O)c3ncnc(C)c3O)CC2)c(=O)n2nc(C3=CCC(c4ncc(C)s4)CC3)nc2n1CC(=O)Nc1ccc(C(F)(F)F)cc1Cl (racemic) | 92.7 nM | 5.3 nM | > 10000 nM |
| CCc1c(N2CCN(C(=O)c3ncnc(C)c3O)CC2)c(=O)n2nc(C3=CCN(C(=O)N4CCCC4)CC3)nc2n1CC(=O)Nc1ccc(C(F)(F)F)cc1Cl | 38.7 nM | 5.52 nM | > 10000 nM |
| CCc1c(N2CCN(C(=O)c3ncnc(C)c3O)CC2)c(=O)n2nc(C3=CCOCC3)nc2n1CC(=O)Nc1ccc(C(F)(F)F)c2c1COC2 | – | 7.87 nM | – |
| CCc1c(N2CCN(C(=O)c3ncnc(C)c3O)CC2)c(=O)n2nc(C3=CCN(C(=O)CC(F)(F)F)CC3)nc2n1CC(=O)Nc1ccc(C(F)(F)F)cc1Cl | – | 5.41 nM | – |
| CCc1c(N2CCN(C(=O)c3ncnc(C)c3O)CC2)c(=O)n2nc(C3=CCN(C(=O)OCc4ccccc4)CC3)nc2n1CC(=O)Nc1ccc(C(F)(F)F)cc1Cl | – | 5.3 nM | – |
| CCc1c(N2CCN(C(=O)c3ncnc(C)c3O)CC2)c(=O)n2nc(C3=CCOCC3)nc2n1CC(=O)Nc1cnc(C(F)(F)F)s1 | – | 16.8 nM | – |
| CCc1c(N2CCN(C(=O)c3ncnc(C)c3O)CC2)c(=O)n2nc(C3=CCC(OC4CC4)CC3)nc2n1CC(=O)Nc1ccc(C(F)(F)F)cc1Cl (centres unmarked) | – | 6.49 nM | – |
| CCc1c(N2CCN(C(=O)c3cnn4cccc(O)c34)CC2)c(=O)n2nc(C3=CCOCC3)nc2n1CC(=O)Nc1ccc(C(F)(F)F)cc1Cl | – | 81.5 nM | – |
| CCc1c(N2CCN(C(=O)c3ncnc(C)c3O)CC2)c(=O)n2nc(C3=CCOCC3)nc2n1CC(=O)Nc1csc(C(F)(F)F)c1 | – | 5.23 nM | – |
| CCc1c(N2CCN(C(=O)c3ncnc(C)c3O)CC2)c(=O)n2nc(C3=CCOCC3)nc2n1CC(=O)Nc1scc(C(F)(F)F)c1C1CC1 | – | 18.7 nM | – |
| CCc1c(N2CCN(C(=O)c3ncnc(C)c3O)CC2)c(=O)n2nc(C#CC3CC3)nc2n1CC(=O)Nc1ccc(C(F)(F)F)cc1Cl | – | 35 nM | – |
| CCc1c(N2CCN(C(=O)c3ncnc(C)c3O)CC2)c(=O)n2nc(C3=CCC4(CC3)CC4)nc2n1CC(=O)Nc1ccc(C(F)(F)F)cc1Cl | – | 8.4 nM | – |

| SMILES | IC50 [1] | IC50 [2] | IC50 [3] |
| --- | --- | --- | --- |
| CCc1c(N2CCN(C(=O)c3ncnc(C)c3O)CC2)c(=O)n2nc(C3=CCCOCCC3)nc2n1CC(=O)Nc1ccc(C(F)(F)F)cc1Cl | – | 5.56 nM | – |
| CCc1c(N2CCN(C(=O)c3ncnc(C)c3O)CC2)c(=O)n2nc(C3=CCN(c4nnc(C)o4)CC3)nc2n1CC(=O)Nc1ccc(C(F)(F)F)cc1Cl | – | 9.22 nM | – |
| CCc1c(N2CCN(C(=O)c3ncnc(C)c3O)CC2)c(=O)n2nc(C3=CCC(c4cnc(C)s4)CC3)nc2n1CC(=O)Nc1ccc(C(F)(F)F)cc1Cl (racemic) | – | 6.3 nM | – |
| CCc1c(N2CCN(C(=O)c3ncnc(C)c3O)CC2)c(=O)n2nc(C#CC3CCOCC3)nc2n1CC(=O)Nc1ccc(C(F)(F)F)cc1Cl | – | 18.4 nM | – |
| CCc1c(N2CCN(C(=O)c3ncnc(C)c3O)CC2)c(=O)n2nc(C3=CCN(C(=O)C(C)C)CC3)nc2n1CC(=O)Nc1ccc(C(F)(F)F)cc1Cl | 25 nM | 10.2 nM | – |
| CCc1c(N2CCN(C(=O)c3ncnc(C)c3O)CC2)c(=O)n2nc(C3=CCOCC3)nc2n1CC(=O)Nc1cc(C(F)(F)F)cn1C | – | 7 nM | – |
| CCc1c(N2CCN(C(=O)c3ncnc(C)c3O)CC2)c(=O)n2nc(C3=CCC(N4CCCOC4=O)CC3)nc2n1CC(=O)Nc1ccc(C(F)(F)F)cc1Cl (centres unmarked) | – | 5.57 nM | – |
| CCc1c(N2CCN(C(=O)c3ncnc(C)c3O)CC2)c(=O)n2nc(C3=CCC(OC(=O)N(C(C)C)C(C)C)CC3)nc2n1CC(=O)Nc1ccc(C(F)(F)F)cc1Cl (centres unmarked) | – | 6.9 nM | – |
| CCc1c(N2CCC3(CC2)CN(C(=O)c2ncnc(C)c2O)C3)c(=O)n2nc(C3=CCOCC3)nc2n1CC(=O)Nc1ccc(C(F)(F)F)cc1Cl | – | 17.7 nM | – |
| CCc1c(N2CCN(C(=O)c3ncnc(C)c3O)CC2)c(=O)n2nc(C3=CCC4(CC3)CCN(C)C(=O)O4)nc2n1CC(=O)Nc1ccc(C(F)(F)F)cc1Cl (racemic) | – | 5.5 nM | – |
| CCc1c(N2CCN(C(=O)c3ncnc(C)c3O)CC2)c(=O)n2nc(C3=CCC4(CCOCC4)CC3)nc2n1CC(=O)Nc1ccc(C(F)(F)F)cc1Cl | – | 5.38 nM | – |
| CCc1c(N2CCN(C(=O)c3ncnc(C)c3O)CC2)c(=O)n2nc(C3=CCN(C(=O)C4CC4)CC3)nc2n1CC(=O)Nc1ccc(C(F)(F)F)cc1Cl | 37 nM | 11.5 nM | – |
| CCc1c(N2CCN(C(=O)c3ncnc(C)c3O)CC2)c(=O)n2nc(C3=CCOCC3)nc2n1CC(=O)Nc1ccc(C(F)(F)F)c2ocnc12 | – | 5.44 nM | – |
| CCc1c(N2CCN(C(=O)c3ncnc(C)c3O)CC2)c(=O)n2nc(C3=CCC4(CC3)COC4)nc2n1CC(=O)Nc1ccc(C(F)(F)F)cc1Cl | – | 4.84 nM | – |
| CCc1c(N2CCN(C(=O)c3ncnc(C)c3O)CC2)c(=O)n2nc(C3=CCN(CC#N)CC3)nc2n1CC(=O)Nc1ccc(C(F)(F)F)cc1Cl | – | 4.93 nM | – |
| CCc1c(N2CCN(C(=O)c3ncnc(C)c3O)CC2)c(=O)n2nc(C3=CCC4(CC3)COC(=O)N(C)C4)nc2n1CC(=O)Nc1ccc(C(F)(F)F)cc1Cl (racemic) | – | 25.1 nM | – |

The remaining lines, values ahead:

| IC50 [1] | IC50 [2] | IC50 [3] | SMILES |
| --- | --- | --- | --- |
| 43.6 nM | 2.7 nM | > 10000 nM | CCc1c(N2CCN(C(=O)c3ncnc(C)c3O)CC2)c(=O)n2nc(C3=CCC(OC(=O)N(C)C)CC3)nc2n1CC(=O)Nc1ccc(C(F)(F)F)cc1Cl (centres unmarked) |
| – | 2.29 nM | – | [2H]C1([2H])CCC(c2nc3n4c(c(N5CCN(C(=O)c6ncnc(C)c6O)CC5)c(=O)n3n2)C(C)CC4C(=O)Nc2scc(C(F)(F)F)c2C)=CCO1 (single isomer, unassigned) [307-P3] |
| 42.9 nM | 4 nM | > 10000 nM | CCc1c(N2CCN(C(=O)c3ncnc(C)c3O)CC2)c(=O)n2nc(C3=CCN(C(=O)OCC4CC4)CC3)nc2n1CC(=O)Nc1ccc(C(F)(F)F)cc1Cl |
| – | 1.67 nM | – | CCc1c(N2CCN(C(=O)c3ncnc(OC)c3O)CC2)c(=O)n2nc(C3=CCOCCC3)nc2n1CC(=O)Nc1ccc(C(F)(F)F)cc1Cl |
| 18.4 nM | 1.12 nM | > 10000 nM | [2H]C1([2H])CCC(c2nc3n4c(c(N5CCN(C(=O)c6ncnc(C)c6O)C(C)C5)c(=O)n3n2)C(C)CC4C(=O)Nc2scc(C(F)(F)F)c2C)=CCO1 (single isomer, unassigned) [306-P4] |
| 53.7 nM | 4.3 nM | > 10000 nM | CCc1c(N2CCN(C(=O)c3ncnc(C)c3O)CC2)c(=O)n2nc(-c3ccc4occc4c3)nc2n1CC(=O)Nc1ccc(C(F)(F)F)cc1Cl |
| 33.5 nM | 2.03 nM | > 10000 nM | CCc1c(N2CCN(C(=O)c3ncnc(C)c3O)CC2)c(=O)n2nc(C3=CCC4(CC3)CCN(C)C4=O)nc2n1CC(=O)Nc1ccc(C(F)(F)F)cc1Cl (centres unmarked) |
| 70.3 nM | 2.8 nM | > 10000 nM | CCc1c(N2CCN(C(=O)c3ncnc(C)c3O)CC2)c(=O)n2nc(C3=CCC4(CCCO4)CC3)nc2n1CC(=O)Nc1ccc(C(F)(F)F)cc1Cl (centres unmarked) |
| 46.5 nM | 2.32 nM | > 10000 nM | CCc1c(N2CCN(C(=O)c3ncnc(C)c3O)CC2)c(=O)n2nc(C3=CCOCCC3)nc2n1CC(=O)Nc1scc(C(F)(F)F)c1Cl |
| – | 1.82 nM | – | CCc1c(N2CCN(C(=O)c3ncnc(C)c3O)CC2)c(=O)n2nc(C3=CCC(S(C)(=O)=O)CC3)nc2n1CC(=O)Nc1ccc(C(F)(F)F)cc1Cl (centres unmarked) |
| – | 1.16 nM | – | Cc1ncnc(C(=O)N2CCN(c3c4n(c5nc(C6=CCOCCC6)nn5c3=O)C(C(=O)Nc3scc(C(F)(F)F)c3C)CC4C)[C@H]3CC[C@@H]32)c1O (some centres unmarked) |
| – | 3.26 nM | – | [2H]C1([2H])C=C(c2nc3n(CC(=O)Nc4ccc(C(F)(F)F)cc4Cl)c(CC)c(N4CCN(C(=O)c5ncnc(C)c5O)CC4)c(=O)n3n2)CCC([2H])([2H])O1 |
| – | 3.7 nM | – | CCc1c(N2CCN(C(=O)c3ncnc(C)c3O)CC2)c(=O)n2nc(C3=CCOCC3)nc2n1CC(=O)Nc1cc(C(F)(F)F)c(Cl)s1 |
| – | 2.33 nM | – | CCc1c(N2CCN(C(=O)c3ncnc(C)c3O)CC2)c(=O)n2nc(C3=CCC(C(=O)NC)CC3)nc2n1CC(=O)Nc1ccc(C(F)(F)F)cc1Cl (centres unmarked) |
| – | 4.8 nM | – | CCc1c(N2CCN(C(=O)c3ncnc(C)c3O)CC2)c(=O)n2nc(C3=CCC4(CC3)CN(C)C(=O)O4)nc2n1CC(=O)Nc1ccc(C(F)(F)F)cc1Cl (racemic) |
| – | 4.49 nM | – | CCc1c(N2CCN(C(=O)c3nn(C)c(=O)cc3O)CC2)c(=O)n2nc(C3=CCOCC3)nc2n1CC(=O)Nc1ccc(C(F)(F)F)cc1Cl |
| – | 1.93 nM | – | CCc1c(N2CCN(C(=O)c3ncnc(C)c3O)CC2)c(=O)n2nc(C3=CCOCCC3)nc2n1CC(=O)Nc1cc(C(F)(F)F)sc1C |
| – | 3.2 nM | – | CCc1c(N2CCN(C(=O)c3ncnc(C)c3O)CC2)c(=O)n2nc(C3=CC4(CCC4)OCC3)nc2n1CC(=O)Nc1ccc(C(F)(F)F)cc1Cl |
| – | 2.51 nM | – | CCc1c(N2CCN(C(=O)c3ncnc(C)c3O)CC2)c(=O)n2nc(C3=CCOCC3)nc2n1CC(=O)Nc1cc(C(F)(F)F)c(C2CC2)s1 |
| – | 2.49 nM | – | [2H]C1([2H])CCC(c2nc3n4c(c(N5CCN(C(=O)c6ncnc(C)c6O)C(C)C5)c(=O)n3n2)C(C)CC4C(=O)Nc2scc(C(F)(F)F)c2C)=CCO1 (single isomer, unassigned) [306-P3] |
| – | 2.31 nM | – | CCc1c(N2CCN(C(=O)c3ncnc(C(C)C)c3O)CC2)c(=O)n2nc(C3=CCOCCC3)nc2n1CC(=O)Nc1ccc(C(F)(F)F)cc1Cl |
| – | 1.87 nM | – | [2H]C1([2H])CCC(c2nc3n(CC(=O)Nc4cc(C(F)(F)F)sc4Cl)c(CC)c(N4CCN(C(=O)c5ncnc(C)c5O)CC4)c(=O)n3n2)=CCO1 |
| – | 2.04 nM | – | CCc1c(N2CCN(C(=O)c3cn4ccnc4cc3O)CC2)c(=O)n2nc(C3=CCOCC3)nc2n1CC(=O)Nc1ccc(C(F)(F)F)cc1Cl |
